Experimental data as given in article PMC5179494 (Molecular Cell, 2016).

Protein sequences, listed by entry. Tags and fused reporters are not part of them. Lines headed by an entry give the natural chain unless they say otherwise; changes in a name come on top.
UniProt P0DV57: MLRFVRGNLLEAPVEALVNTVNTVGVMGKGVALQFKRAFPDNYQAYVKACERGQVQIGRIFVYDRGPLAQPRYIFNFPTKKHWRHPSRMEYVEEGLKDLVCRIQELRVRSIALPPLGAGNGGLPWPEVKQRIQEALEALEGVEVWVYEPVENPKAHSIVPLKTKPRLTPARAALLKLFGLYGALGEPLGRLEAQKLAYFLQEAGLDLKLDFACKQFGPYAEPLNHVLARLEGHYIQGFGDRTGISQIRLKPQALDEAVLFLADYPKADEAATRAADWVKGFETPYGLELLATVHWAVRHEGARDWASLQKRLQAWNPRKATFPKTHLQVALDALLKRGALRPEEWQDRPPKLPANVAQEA

Target: T1, TaqDarG (Thermus aquaticus, UniProt P0DV57)
T1 construct: gene darG
Assay: release from ADP-ribosylated oligonucleotide, autoradiography of TLC
Conditions: ADP-ribosylated ssDNA oligonucleotide as substrate; labelled compound; 37 C, 15 min

## Nc1ncnc2c1ncn2[C@@H]1O[C@H](COP(=O)(O)OP(=O)(O)OC[C@H]2OC(O)[C@H](O)[C@@H]2O)[C@@H](O)[C@H]1O (stereo partly shown) [ADPr]
  release from ADP-ribosylated oligonucleotide, autoradiography of TLC: loss of modification (Figures 3A, top, and S3A) and the release of free ADPr
